# Experimental water solubility values from OPERA 2.9

From the experimental data distributed with OPERA 2.9.

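These are experimental values that the OPERA curators gathered from public databases to train and test their QSAR models. One number stands for a compound and property, with no spread given. Method, purity and exact conditions of the single measurements are not given. Where a salt, mixture or single isomer is drawn, the source does not say that exactly this form was tested. Some upstream entries may be estimates or bounds without being marked so.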

Solubility in water is on a log10 molar scale (set defined at 25 °C).

For CCC(COC(=O)CCCCCCCCCCCCCCC(C)C)(COC(=O)CCCCCCCCCCCCCCC(C)C)COC(=O)CCCCCCCCCCCCCCC(C)C the data give water solubility -7.271 (log10 mol/L).
For Nc1c(-c2nc3cc4c(cc3o2)C(=O)c2ccccc2C4=O)ccc2c1C(=O)c1ccccc1C2=O the data give water solubility -5.496 (log10 mol/L).
For Clc1ccc(Oc2cc(Cl)cc(Cl)c2Cl)c(Cl)c1 [2,2',3,4',5-Pentachlorodiphenylether] the data give water solubility -7.64 (log10 mol/L).
For OCCOc1ccc(OCCO)cc1 [2,2'-[1,4-Phenylenebis(oxy)]diethanol] the data give water solubility -1.229 (log10 mol/L).
For CCCc1nc(C(=O)O)c(C(=O)O)[nH]1 [2-propyl-1H-imidazole-4,5-dicarboxylic Acid] the data give water solubility -2.19 (log10 mol/L).
For CC(=O)Nc1ccc(/N=N/c2cc(C)ccc2O)cc1 [C.I. Disperse Yellow 3] the data give water solubility -5.36 (log10 mol/L).
For NS(=O)(=O)c1ccc(SCCCO)s1 [5-[(3-Hydroxypropyl)sulfanyl]-2-thiophenesulfonamide] the data give water solubility -1.426 (log10 mol/L).
For CC(C)COC(=O)c1cc(N)c(Cl)c(N)c1 [Benzoic acid, 3,5-diamino-4-chloro-, 2-methylpropyl ester] the data give water solubility -2.738 (log10 mol/L).
For CC[C@H](C)C(=O)O[C@H]1C[C@H](O)C=C2C=C[C@H](C)[C@H](CC[C@@H](O)C[C@@H](O)CC(=O)O)[C@H]21 [Pravastatin] the data give water solubility -3.244 (log10 mol/L).
For CC(C)c1ccc(C(O)C(=O)O)cc1 (stereo unspecified) [Hydroxy(4-isopropylphenyl)acetic acid] the data give water solubility -2.012 (log10 mol/L).
For COc1ccc(NC(=O)N(C)C)cc1 [N'-(4-METHOXYPHENYL)-N,N-DIMETHYLUREA] the data give water solubility -1.33 (log10 mol/L).
For C=C(C)[C@H]1CC[C@H](C)C(=O)C1 the data give water solubility -2.18 (log10 mol/L).
For C#CCON=C1CC2CCC1(C)C2(C)C (stereo unspecified) [Heptopargil] the data give water solubility -2.312 (log10 mol/L).
For COc1cc(Cl)c(Cl)c(Cl)c1O [4,5,6-Trichloroguaiacol] the data give water solubility -4.04 (log10 mol/L).
For CC(=O)OC1=CC2=CC[C@@H]3[C@H](CC[C@@]4(C)[C@H]3CCC43OCC(C)(C)CO3)[C@@]2(C)CC1 the data give water solubility -6.317 (log10 mol/L).
For O=C(O)c1cccc(C(=O)O)c1C(=O)O the data give water solubility -0.837 (log10 mol/L).
For Cc1ccc(N2C(=O)c3cccc4c(N)ccc(c34)C2=O)c(C)c1 the data give water solubility -4.892 (log10 mol/L).
For CCCCCC1CCCC(=O)O1 (stereo unspecified) [6-Pentyltetrahydro-2H-pyran-2-one] the data give water solubility -1.629 (log10 mol/L).
For CC(=O)c1ccc(O[C@@H]2O[C@H](CO)[C@@H](O)[C@H](O)[C@H]2O)cc1 [Picein] the data give water solubility -1.174 (log10 mol/L).
For O=C(O)CC(O)(C(=O)O)c1ccccc1 (stereo unspecified) [2-Hydroxy-2-phenylbutanedioic acid] the data give water solubility -1.127 (log10 mol/L).
For CC(C)(C)C(=O)Oc1ccc([N+](=O)[O-])cc1 [4-Nitrophenyl trimethylacetate] the data give water solubility -6.57 (log10 mol/L).
For CC(C)[C@@H]1NC(=O)[C@H](CCCCN)NC(=O)[C@@H](Cc2c[nH]c3ccccc23)NC(=O)[C@H](Cc2ccc(O)cc2)NC(=O)[C@@H](NC(=O)[C@H](N)Cc2ccccc2)CSSC[C@@H](C(=O)N[C@@H](Cc2c[nH]c3ccccc23)C(N)=O)NC1=O [Vapreotide] the data give water solubility -5.453 (log10 mol/L).
For O=C1OC2(c3ccccc31)c1cc(I)c(O)c(I)c1Oc1c2cc(I)c(O)c1I [C.I. Solvent Red 140] the data give water solubility -3.077 (log10 mol/L).
For CCOc1ccccc1NC(=O)c1cc2ccccc2c(N=Nc2ccc(C(N)=O)cc2)c1O [C.I. Pigment Red 170] the data give water solubility -7.582 (log10 mol/L).
For COC(=O)C(CCn1cnc2c(Cl)nc(N)nc21)C(=O)OC the data give water solubility -3.034 (log10 mol/L).
For Clc1ccc(-c2ccc(-c3cc(Cl)ccc3Cl)cc2)cc1 [1,1':4',1''-Terphenyl, 2,4'',5-trichloro-] the data give water solubility -8.91 (log10 mol/L).
For O=CC(C(=O)O)(c1ccccc1)[N+](=O)[O-] (stereo unspecified) [Benzenepropanoic acid, 2-nitro-b-oxo-] the data give water solubility -1.843 (log10 mol/L).
For CC(C)=CCCC(C)CCO (stereo unspecified) [Citronellol] the data give water solubility -2.712 (log10 mol/L).
For Cc1nn(-c2ccccc2)c(=O)[c-]1/N=N/c1cc([N+](=O)[O-])ccc1[O-].Cc1nn(-c2ccccc2)c(=O)[c-]1/N=N/c1cc([N+](=O)[O-])ccc1[O-].[Cr+3].[Na+] the data give water solubility -2.326 (log10 mol/L).
For Nc1ccc(Nc2ccccc2)c2c1C(=O)c1ccccc1C2=O [C.I. Solvent Blue 68] the data give water solubility -9.21 (log10 mol/L).
For FC1=C(OC(F)(F)F)OC(F)(F)O1 [1,3-Dioxole, 2,2,4-trifluoro-5-(trifluoromethoxy)-] the data give water solubility -3.189 (log10 mol/L).
For Cn1c(=O)[nH]c2c(=O)n(C)c(=O)n(C)c2c1=O the data give water solubility -3.764 (log10 mol/L).
For CCCCC(NC(N)=O)C(=O)O (racemic) the data give water solubility -2.162 (log10 mol/L).
For CC(=O)C(N=Nc1ccc(Cl)cc1[N+](=O)[O-])C(=O)Nc1ccccc1Cl (stereo unspecified) the data give water solubility -7.722 (log10 mol/L).
For Nc1cccc2ccc(S(=O)(=O)O)cc12 [2-Naphthalenesulfonic acid, 8-amino-] the data give water solubility -1.68 (log10 mol/L).
For CN1CCCCC1 [Piperidine, 1-methyl-] the data give water solubility 0.23 (log10 mol/L).
For CC(=NO)C(=O)O [2-(Hydroxyimino)propanoic acid] the data give water solubility 0.942 (log10 mol/L).
For Oc1nc2cncnc2nc1O [5,8-Dihydro-6,7-pteridinedione] the data give water solubility -2.693 (log10 mol/L).
For NS(=O)(=O)c1cc2c(s1)SCCC2O (stereo unspecified) the data give water solubility -2.594 (log10 mol/L).
For O=C(O)c1cc([N+](=O)[O-])ccc1O [Benzoic acid, 2-hydroxy-5-nitro-] the data give water solubility -2.37 (log10 mol/L).
For Clc1ccc(Oc2c(Cl)cc(Cl)cc2Cl)c(Cl)c1 [2,2',4,4',6-Pentachlorodiphenyl ether] the data give water solubility -7.33 (log10 mol/L).
For O=C(NCCCCCCNC(=O)OCCO)OCCO [1,6-Bis(2-hydroxyethyloxycarbonylamino)hexane] the data give water solubility -0.922 (log10 mol/L).
For Cc1ccnc(NC(=O)c2cnccn2)n1 [N-(4-Methylpyrimidin-2-yl)pyrazine-2-carboxamide] the data give water solubility -0.731 (log10 mol/L).
For O=C(O)c1ccccc1C(=O)c1ccc(O)cc1O [2-(2,4-Dihydroxybenzoyl)benzoic acid] the data give water solubility -2.696 (log10 mol/L).
For CCCCCCCC/C=C\CCCCCCCC(=O)N(CCCC)CCCC [9-Octadecenamide, N,N-dibutyl-, (9Z)-] the data give water solubility -4.789 (log10 mol/L).
For CC(=O)C(N=Nc1ccc(C(=O)O)cc1)/C(O)=N\c1ccccc1 (stereo partly drawn) the data give water solubility -4.132 (log10 mol/L).
For CCCCCCCCCCCC[N+](C)(C)[O-] [N,N-Dimethyldodecylamine-N-oxide] the data give water solubility -0.082 (log10 mol/L).
For CC(C)(N)CO.Cn1c(=O)c2[nH]c(Br)nc2n(C)c1=O [Pamabrom [USAN:USP]] the data give water solubility 0.064 (log10 mol/L).
For Clc1ccc(Oc2cccc(Cl)c2Cl)c(Cl)c1 the data give water solubility -6.65 (log10 mol/L).
For CC[C@@H]1CCN[C@H](C(=O)N[C@@H]([C@H]2O[C@H](SC)[C@H](O)[C@@H](O)[C@H]2O)[C@H](C)Cl)C1 [Pirlimycin] the data give water solubility -0.77 (log10 mol/L).
For COC(=O)c1ccc(N=Nc2ccc(N)cc2N)cc1 [4-(2,4-Diaminophenylazo)benzoic acid methyl ester] the data give water solubility -3.201 (log10 mol/L).
For CCCCCCc1ccc(O)cc1O [4-Hexylresorcinol] the data give water solubility -2.59 (log10 mol/L).
For CC[C@H]1OC(=O)[C@H](C)[C@@H](O[C@H]2C[C@@](C)(OC)[C@@H](O)[C@H](C)O2)[C@H](C)[C@@H](O[C@@H]2O[C@H](C)C[C@H](N(C)C)[C@H]2O)[C@](C)(O)C[C@@H](C)C(=O)[C@H](C)[C@@H](O)[C@]1(C)O [Erythromycin] the data give water solubility -4.43 (log10 mol/L).
For CC(=O)OCC(COC(C)=O)(COC(C)=O)COC(C)=O [Pentaerythritol tetraacetate] the data give water solubility -1.57 (log10 mol/L).
For CC(C)OC(=O)OCOP(=O)(COC(C)Cn1cnc2c(N)ncnc21)OCOC(=O)OC(C)C.O=C(O)/C=C/C(=O)O (stereo partly drawn) [Tenofovir disoproxil fumarate] the data give water solubility -1.676 (log10 mol/L).

Repeated from above, the 3 entries with the highest water solubility:

Listed for CC(=NO)C(=O)O [2-(Hydroxyimino)propanoic acid]: water solubility 0.942 (log10 mol/L).
Listed for CN1CCCCC1 [Piperidine, 1-methyl-]: water solubility 0.23 (log10 mol/L).
Listed for CC(C)(N)CO.Cn1c(=O)c2[nH]c(Br)nc2n(C)c1=O [Pamabrom [USAN:USP]]: water solubility 0.064 (log10 mol/L).